Measurements as given in patent US20220151890A1, “EFFICIENT SUNSCREEN COMPOSITIONS WITH DIETHYLAMINO HYDROXYBENZOYL HEXYL BENZOATE AND BUTYL METHOXYDIBENZOYLMETHANE” (BASF SE, priority 2019, published 2022).

Experiment: UV filter performance: wavelength of maximum absorbance of BMDBM in emollient
Type: physicochemical
Settings: BMDBM dissolved in the listed emollient; UV/Vis 290 to 400nm, 1 cm cuvette
Procedure: The wavelength of maximum absorbance (,max) is an indicator to describe the performance of a UV filter molecule. It gives the wavelength at which the absorbance is at maximum. […] The UV transmission spectrum of each UV filter - emollient mixture was measured from 290 to 400nm using a UV/Vis spectrophotometer Perkin Elmer Lambda 25. Three stock solutions with a concentration of 1mM of UV filter were prepared for each mixture. Further, three dilutions of each stock solution were prepared resulting in nine measurements in total per UV filter-emollient solution. Then, all solutions were filled in UV transparent quartz cuvette of 1 cm optical path-length for UV Transmission measurements.

λmax values (BMDBM): 358 nm
Compound: CCCCOC(=O)CCCCC(=O)OCCCC [dibutyl adipate]
